Test results taken from patent publication US8906868B2, “Aminoglycoside derivatives” (Rempex Pharmaceuticals, Inc., priority 2010, dated 2014).

Test system: rats
Settings: rat, in vivo, sc

Gentamicin C1a [reference compound]
Histopathology Results After 7 days of Dosing (30 mg/kg/day): No Change | Histopathology Results After 14 days of Dosing (30 mg/kg/day): Minimal Nephrosis | Histopathology Results After 7 days of Dosing (100 mg/kg/day): No Change | Histopathology Results After 14 days of Dosing (100 mg/kg/day): Mild to Moderate Nephrosis | Histopathology Results After 7 days of Dosing (300 mg/kg/day): Severe Nephrosis

Read-outs that look alike come from different tables or passages of the source.
